Ki data for one molecule are collected here from ChEMBL document CHEMBL1129286, “In vitro and in vivo studies of benzisoquinoline ligands for the brain synaptic vesicle monoamine transporter” (J Med Chem, 1996).

Sequences of proteins named here, by UniProt entry; tags and fusion partners are left off.
UniProt Q01827, whole entry: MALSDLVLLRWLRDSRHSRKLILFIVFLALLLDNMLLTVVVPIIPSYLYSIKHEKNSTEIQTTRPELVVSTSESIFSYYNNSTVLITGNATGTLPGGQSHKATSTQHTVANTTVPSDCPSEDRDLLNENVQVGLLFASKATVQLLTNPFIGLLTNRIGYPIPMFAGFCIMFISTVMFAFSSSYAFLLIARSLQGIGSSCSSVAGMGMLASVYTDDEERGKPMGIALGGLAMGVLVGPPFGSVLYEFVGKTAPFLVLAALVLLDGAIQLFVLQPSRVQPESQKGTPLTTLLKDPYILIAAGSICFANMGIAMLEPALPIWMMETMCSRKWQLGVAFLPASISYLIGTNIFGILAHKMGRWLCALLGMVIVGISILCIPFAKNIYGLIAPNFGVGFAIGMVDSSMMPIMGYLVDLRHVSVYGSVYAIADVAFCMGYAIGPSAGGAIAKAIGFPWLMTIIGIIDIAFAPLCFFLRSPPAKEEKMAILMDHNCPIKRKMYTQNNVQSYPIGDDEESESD

The assay deals with Synaptic vesicular amine transporter (Rattus norvegicus, UniProt Q01827). Kind of assay: In vitro inhibition of [3H]- Methoxytetrabenazine binding to rat brain vesicular monoamine transporter 2 (VMAT2). A digest of the protocol: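 Autoradiographic competition on rat brain coronal sections (20, caudate-putamen level) on slides. Sections prewashed at 25 °C in sucrose buffer (300 mM sucrose, 50 mM Tris, 1 mM EDTA, pH 8.0), then incubated 3 h with 10 nM [3H]methoxytetrabenazine and test drug from 1 nM. Washed 3 × 3 min, dipped in 4 °C water, air-dried, film-exposed 2 weeks. Striatal densitometry against calibrated standards; Ki by nonlinear one-/two-site fitting; mean ± SD, n = 3.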

Take `COc1cc2c(cc1OC)[C@H]1CC(=O)[C@H](CC(C)C)CN1CC2`: the affinity, expressed as Ki, was 8.1 nM.

A word on the Ki: it is the equilibrium dissociation constant of an inhibitor or competing ligand from its target. Lower therefore signals a stronger hold on the target.
